System: Cholecystokinin receptors CCK1 (Rattus norvegicus)/CCK2 (Mus musculus)
Test: Selectivity ratio of IC50 of CCK1 to that of CCK2

Q: Which Selectivity does the source give for `O=C1NN(C(=O)Nc2ccc(Br)cc2)[C@@H](c2ccccc2)[C@@H]1c1ccccc1` here?
A: 0.0009

Q: Which Selectivity does the source give for `O=C1NN(C(=O)Nc2ccc(Br)cc2)[C@H](c2ccccc2)[C@H]1c1ccccc1` here?
A: 0.05

Source: ChEMBL document CHEMBL1133649, “Development of peptide 3D structure mimetics: rational design of novel peptoid cholecystokinin receptor antagonists” (J Med Chem, 2000)
